{"sequences": {"note": "Amino acid sequences for entries named in this document (tags omitted).", "UniProt P05187, whole entry": "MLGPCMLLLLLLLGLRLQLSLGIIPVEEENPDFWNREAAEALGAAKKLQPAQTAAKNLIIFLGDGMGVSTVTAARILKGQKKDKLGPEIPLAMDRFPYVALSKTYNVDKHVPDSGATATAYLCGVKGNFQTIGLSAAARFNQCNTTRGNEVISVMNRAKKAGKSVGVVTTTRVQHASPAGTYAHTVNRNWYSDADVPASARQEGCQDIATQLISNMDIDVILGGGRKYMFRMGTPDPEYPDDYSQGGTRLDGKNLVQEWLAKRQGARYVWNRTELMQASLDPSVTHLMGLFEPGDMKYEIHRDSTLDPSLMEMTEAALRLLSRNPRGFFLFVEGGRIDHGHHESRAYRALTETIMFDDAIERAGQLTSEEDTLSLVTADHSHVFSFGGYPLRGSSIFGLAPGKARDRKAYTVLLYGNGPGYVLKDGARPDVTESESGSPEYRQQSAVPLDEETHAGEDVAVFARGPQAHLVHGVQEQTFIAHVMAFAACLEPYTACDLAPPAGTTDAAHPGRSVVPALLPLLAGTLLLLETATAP"}, "source": "PubChem BioAssay AID690", "about": "(Sanford-Burnham Center for Chemical Genomics, 2007)", "note": "The entries are a selection whose mix differs from that of the whole data set. Potency and affinity values are given separately. Some results for these compounds are left out of this collection, so the calls shown say nothing about other tests. Calls of active or inactive are those of the source. No rule for the calls is given here.", "data": [{"biological_target": "Alkaline phosphatase, placental type (Homo sapiens) (UniProt P05187)", "assay": "inhibition of human placental alkaline phosphatase – biochemical, luminescence, HTS (AID 690)", "settings": "purified PLAP, luminescent substrate; at 20 µM; active compounds read high", "values": [{"smiles": "CN(C)c1cccc(C(=O)NCC2(N(C)C)CCCCC2)c1", "inhibition": "inactive: 12.6%"}, {"smiles": "O=C(OC1CN2CCC1CC2)C(CO)(c1ccccc1)c1ccccc1", "note": "(stereo not drawn)", "inhibition": "inactive: -16.4%"}, {"smiles": "CC(C)N1C(=O)CC2(CCN(CCOC(=O)C(O)(c3ccccc3)c3ccccc3)CC2)C1=O", "inhibition": "inactive: -36.5%"}]}]}
